Literature values in US6503545B1, “Hyper-absorption of vitamin E combined with milk protein” (Brandeis University, priority 1999, dated 2003).

Conditions: 800 IU per day for 4 months, healthy elderly; cited from earlier work

In the case of vitamin E, the side-effects is given as “no detectable side-effects”.
